Laboratory results taken from paper PMC6355318 (Bioorganic & Medicinal Chemistry Letters, 2019).

Protein sequences, listed by entry. Tags and fused reporters are not part of them. Lines headed by an entry give the natural chain unless they say otherwise; changes in a name come on top.
UniProt Q8I719: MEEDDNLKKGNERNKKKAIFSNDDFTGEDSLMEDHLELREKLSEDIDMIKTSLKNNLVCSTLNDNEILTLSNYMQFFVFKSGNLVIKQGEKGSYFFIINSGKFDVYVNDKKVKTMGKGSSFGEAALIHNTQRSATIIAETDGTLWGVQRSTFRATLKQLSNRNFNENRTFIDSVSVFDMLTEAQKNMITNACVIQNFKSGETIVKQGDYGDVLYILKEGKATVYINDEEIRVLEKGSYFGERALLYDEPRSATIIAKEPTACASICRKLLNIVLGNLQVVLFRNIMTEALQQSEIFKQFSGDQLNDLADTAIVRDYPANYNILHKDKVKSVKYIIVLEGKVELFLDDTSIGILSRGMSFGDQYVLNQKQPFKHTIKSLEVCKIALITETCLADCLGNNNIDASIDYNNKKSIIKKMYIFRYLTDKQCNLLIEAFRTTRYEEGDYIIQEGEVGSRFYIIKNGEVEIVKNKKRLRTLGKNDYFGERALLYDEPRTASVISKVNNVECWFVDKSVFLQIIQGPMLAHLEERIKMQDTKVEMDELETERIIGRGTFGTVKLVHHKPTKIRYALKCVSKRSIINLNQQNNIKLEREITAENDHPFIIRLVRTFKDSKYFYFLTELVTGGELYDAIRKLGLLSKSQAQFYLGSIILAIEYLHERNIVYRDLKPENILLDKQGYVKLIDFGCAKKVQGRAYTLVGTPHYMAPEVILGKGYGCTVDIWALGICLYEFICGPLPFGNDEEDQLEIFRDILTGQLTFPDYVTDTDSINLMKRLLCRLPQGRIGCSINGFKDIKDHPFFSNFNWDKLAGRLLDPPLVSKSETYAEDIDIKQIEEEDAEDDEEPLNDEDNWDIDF

Molecular target: PfPKG (Plasmodium falciparum, UniProt Q8I719)
Format: biochemical
Details: LLE (pIC50 - mLogD)

Row | Compound | LLE
1 | CN(C)CCCNc1nccc(-c2c(-c3ccc(F)cc3)nc3ccccn23)n1 [Compound 14] | 4.3
2 | Fc1ccc(-c2nc3ccccn3c2-c2ccnc(NC3CCOCC3)n2)cc1 [Compound 15] | 5.1
3 | CN1CCC(c2ccc(Nc3nccc(-c4c(-c5ccc(F)cc5)nc5ccccn45)n3)cc2)CC1 [Compound 17] | 5.0
4 | CN1CCC(n2cc(Nc3nccc(-c4c(-c5ccc(F)cc5)nc5ccccn45)n3)cn2)CC1 [Compound 18] | 4.3
5 | CN(C)Cc1cc2nc(-c3ccc(F)cc3)c(-c3ccnc(N)n3)n2cn1 [Compound 19] | 5.2
6 | CN(C)Cc1ccn2c(-c3ccnc(N)n3)c(-c3ccc(F)cc3)nc2n1 [Compound 20] | 5.0
7 | CN(C)Cc1ccc2c(c1)nc(-c1ccc(F)cc1)n2-c1ccnc(N)n1 [Compound 23] | 6.3
8 | CN(C)CCNc1ccc2nc(-c3ccc(F)cc3)c(-c3ccnc(N)n3)n2n1 [Compound 26] | 4.8
9 | CN(C)Cc1ccc2c(-c3ccnc(N)n3)c(-c3ccc(F)cc3)nn2c1 [Compound 29] | 5.9
